The target in this assay is JNK1 (Homo sapiens, UniProt P45983). As to the kind of experiment: Biochemical JNK1 kinase inhibition (Z'-lyte format). The conditions noted are these: Table 2.

By UniProt entry, the sequences of proteins in these tests, tags left out. Where a name states a change or a piece, a line headed by the entry shows the natural chain unless it says otherwise.
UniProt P45983: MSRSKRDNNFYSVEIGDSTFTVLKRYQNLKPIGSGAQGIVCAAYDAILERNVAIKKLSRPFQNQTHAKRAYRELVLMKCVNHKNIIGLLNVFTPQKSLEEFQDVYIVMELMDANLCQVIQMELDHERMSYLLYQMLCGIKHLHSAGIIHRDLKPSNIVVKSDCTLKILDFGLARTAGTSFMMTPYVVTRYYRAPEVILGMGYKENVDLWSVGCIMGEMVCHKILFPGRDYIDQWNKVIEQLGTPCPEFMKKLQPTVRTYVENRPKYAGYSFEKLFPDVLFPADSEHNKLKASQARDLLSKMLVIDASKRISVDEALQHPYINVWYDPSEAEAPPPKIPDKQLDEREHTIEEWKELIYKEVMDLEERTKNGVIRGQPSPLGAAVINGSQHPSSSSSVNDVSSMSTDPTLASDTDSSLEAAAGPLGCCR

Consider `Cc1cc(NC(=O)c2cccc(NC(=O)/C=C/CN(C)C)c2)ccc1Nc1nccc(-c2cccnc2)n1` [JNK-IN-8], for which 4.67 nM corresponded to half-maximal inhibition (IC50).

Values taken from patent publication US10144730B2, “Inhibitors of c-Jun-N-terminal kinase (JNK)” (Dana-Farber Cancer Institute, Inc., priority 2011, dated 2018).
